Earlier results, collected in patent publication US20170003257A1, “WETNESS INDICATOR WITH TWO COLORANTS AND TWO STABILIZERS” (The Procter & Gamble Company, priority 2015, published 2017).
Some compounds may have been tested in ways that are not shown here.

Settings: Table 2 stabilizers, first pKa

Question: For `O=[N+]([O-])c1cc([N+](=O)[O-])c(O)c([N+](=O)[O-])c1`, which pKa (1) is on record?
Answer: 0.4
